Reference: patent US20250057961A1, “BLOOD-BRAIN BARRIER PENETRATING DRUG DELIVERY SYSTEM USING SIALYLLACTOSE” (GENECHEM INC., priority 2021, published 2025)

Experiment: Brain tissue penetration and substance dissociation (LC-MS/MS of tissue homogenate supernatant)
Details: administered intravenously
Experimental: To examine the distribution and dissociation of sialyllactose-conjugated methotrexate in tissues, GCB017 was administered and the presence of GCB017 and its dissociates (linker-6′SL (L-6′SL) and linker) in the brain and pancreas was checked. Specifically, GCB017 was dissolved and diluted in 10% DMSO, thus preparing a sample (final DMSO concentration was approximately 2% of the total volume). The sample was administered intravenously (IV) at a dose of 80 mg/kg or administered orally (PO) at a dose of 80 mg/kg. Then, at different time points (0, 0.5, 2, and 4 hours), the animals were anesthetized, heart blood was collected, saline solution was perfused, and the brain and pancreas were extracted. Each of the extracted tissues was homogenized in 50 mM Tris-HCl buffer (pH 7.5) at a ratio of 1:5 and centrifuged at 3,000 rpm and 4° C. for 20 minutes, and the supernatant was collected and subjected to mass spectrometry (SCIEX Triple Quad 3500 LC-MS/MS system).
The sample was administered intravenously (IV) at a dose of 80 mg/kg or administered orally (PO) at a dose of 246 mg/kg. Then, at different time points (0, 0.5, 2, and 4 hours), the animals were anesthetized, heart blood was collected, saline solution was perfused, and the brain and pancreas were extracted. […]

Substance: gemcitabine-succinate-aminohexyl-6′SL [GCB034]
- presence of GCB034 and its dissociates in tissues: detected in the brain and pancreas
